# scFv variants of Ab-14 (light chain) against a SARS-CoV-2 spike peptide

The target is the same throughout: PDVDLGDISGINAS, from the HR2 region of SARS-CoV-2 spike.

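The starting antibody came from a phage panning campaign against this peptide. Variants in AAYL50 differ from the parent at up to three CDR positions; double and triple changes were sampled at random. Affinity was read by AlphaSeq, a pooled yeast mating assay with surface-displayed partners. Binding brings cells together so that they mate, and sequencing counts the barcode pairs among the diploids. Read counts were normalised to the haploid input and turned into Kd by a linear fit to BCL2-family pairs of known affinity, for each replicate. Each pool was mated in three replicate cultures.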

Each scFv is VH, a (GGGGS)3 linker, VL, as in the parent Ab-14, and differs from it in the CDRs of the light chain only.
VH: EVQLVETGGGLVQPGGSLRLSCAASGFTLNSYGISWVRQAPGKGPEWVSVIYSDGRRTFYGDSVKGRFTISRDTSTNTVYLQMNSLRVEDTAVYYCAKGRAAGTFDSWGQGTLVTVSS
VL: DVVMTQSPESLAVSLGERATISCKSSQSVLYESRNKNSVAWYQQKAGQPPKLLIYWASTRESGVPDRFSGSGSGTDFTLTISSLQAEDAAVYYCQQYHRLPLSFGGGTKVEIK

The whole VL of each variant is written out. Scale: log10 of Kd in nM, estimated from mating counts; low values are strong binders. A mean of the replicates is given; it leaves out those without a signal. "nd" marks a missing value. The strain was present, yet no cells mated with the target were sequenced in any replicate, which points to weak or no binding.

VL	log10 Kd (nM), mean	replicates with signal	signal with controls
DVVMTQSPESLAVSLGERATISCKSSASVLYESRNKNRVAWYQQKAGQPPKLLIYWASTRESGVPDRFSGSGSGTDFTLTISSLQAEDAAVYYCQHYHRLPLSFGGGTKVEIK	nd	0/3	0/9
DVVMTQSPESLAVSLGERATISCKSSQSVLFESRNPNSVAWYQQKAGQPPKLLIYWASTRESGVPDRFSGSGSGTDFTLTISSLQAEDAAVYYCNQYHRLPLSFGGGTKVEIK	3.59	1/3	0/9
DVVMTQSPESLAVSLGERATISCKWSQSVLYESRSKNSVAWYQQKAGQPPKLLIYWSSTRESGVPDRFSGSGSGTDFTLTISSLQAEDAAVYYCQQYHRLPLSFGGGTKVEIK	2.02	3/3	2/9
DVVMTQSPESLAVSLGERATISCKSSQSVLYESRNKNSLAWYQQKAGQPPKLLIYWASTRESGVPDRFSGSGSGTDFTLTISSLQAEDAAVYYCQQYHHLMLSFGGGTKVEIK	nd	0/3	0/9
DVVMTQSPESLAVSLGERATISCKSSQSQLYESRNKNSVAWYQQKAGQPPKLLIYWAITRESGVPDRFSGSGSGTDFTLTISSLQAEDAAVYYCQQYHRLPLVFGGGTKVEIK	3.18	1/3	0/9
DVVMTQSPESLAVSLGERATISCKSSQFVLYESRHKNSVAWYQQKAGQPPKLLIYWASTRESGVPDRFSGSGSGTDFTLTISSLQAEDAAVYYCQQYHRLPHSFGGGTKVEIK	4.90	2/3	5/9
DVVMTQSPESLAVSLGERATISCKSSQSVLYESRNANSVEWYQQKAGQPPKLLIYWASFRESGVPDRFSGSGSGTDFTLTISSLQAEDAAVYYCQQYHRLPLSFGGGTKVEIK	3.37	1/3	0/9
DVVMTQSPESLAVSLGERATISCKSSQSVLYESRNKNLVAWYQQKAGQPPKLLIYWASTRESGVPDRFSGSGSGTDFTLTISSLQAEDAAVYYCQQYLRLPLRFGGGTKVEIK	nd	0/3	3/9
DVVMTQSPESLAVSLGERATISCKSSQSVLFESRNKLSVLWYQQKAGQPPKLLIYWASTRESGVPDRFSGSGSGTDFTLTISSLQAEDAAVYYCQQYHRLPLSFGGGTKVEIK	4.34	1/3	2/9
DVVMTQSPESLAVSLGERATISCISSQSVLYESRNKNSAAWYQQKAGQPPKLLIYWASTRESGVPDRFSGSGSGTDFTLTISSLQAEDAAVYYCQQYHRLPLVFGGGTKVEIK	4.84	2/3	4/9
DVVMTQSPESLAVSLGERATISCKSSCSVLYESRNKNSVAWYQQKAGQPPKLLIYWASARESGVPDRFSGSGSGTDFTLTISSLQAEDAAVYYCQQYHRLPLSFGGGTKVEIK	2.35	3/3	4/9
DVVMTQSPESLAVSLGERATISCKSSDSVLYESPNKNSVAWYQQKAGQPPKLLIYKASTRESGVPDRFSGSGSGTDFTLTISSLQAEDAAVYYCQQYHRLPLSFGGGTKVEIK	-0.21	3/3	2/9
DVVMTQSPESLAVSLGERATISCKSYQSVLYESRNKNSVAWYQQKAGQPPKLLIYQASTRESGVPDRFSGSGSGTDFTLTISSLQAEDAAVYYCFQYHRLPLSFGGGTKVEIK	0.59	3/3	5/9
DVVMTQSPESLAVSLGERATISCESSQSVLYESRNKNSVAWYQQKAGQPPKLLIYWASTRESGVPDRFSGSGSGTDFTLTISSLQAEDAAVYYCQQYHPLPLSFGGGTKVEIK	nd	0/3	3/9
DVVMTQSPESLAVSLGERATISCSSSQGVLYESMNKNSVAWYQQKAGQPPKLLIYWASTRESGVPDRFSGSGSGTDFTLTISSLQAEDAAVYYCQQYHRLPLSFGGGTKVEIK	0.41	3/3	0/9
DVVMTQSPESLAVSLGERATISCKSSEQVLYESRNKNSVAWYQQKAGQPPKLLIYWASTRESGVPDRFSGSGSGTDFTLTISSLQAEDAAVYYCQQYHRLSLSFGGGTKVEIK	1.00	3/3	0/9
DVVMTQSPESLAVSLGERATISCKSSQSVLYESRSKNGVAWYQQKAGQPPKLLIYWASTRESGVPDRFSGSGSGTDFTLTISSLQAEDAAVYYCQQYHRLALSFGGGTKVEIK	2.13	3/3	0/9
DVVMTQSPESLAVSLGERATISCKSSQSVLYESRNKNSVAWYQQKAGQPPKLLIYWASIRESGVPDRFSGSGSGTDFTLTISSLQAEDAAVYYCQQNHYLPLSFGGGTKVEIK	4.58	2/3	1/9
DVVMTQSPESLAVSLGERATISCKVSQSVLYESRNKNSVAWYQQKAGQPPKLLIYWASTREVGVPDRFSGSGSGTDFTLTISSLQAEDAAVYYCQQYHHLPLSFGGGTKVEIK	-0.14	3/3	1/9
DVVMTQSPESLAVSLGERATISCGSSQSVLYESRNKNSWAWYQQKAGQPPKLLIYWASTRESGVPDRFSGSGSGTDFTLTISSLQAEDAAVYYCQQYHLLPLSFGGGTKVEIK	3.99	3/3	1/9
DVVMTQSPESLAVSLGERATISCKSSQSGLYNSRNKNSVAWYQQKAGQPPKLLIYWASTRESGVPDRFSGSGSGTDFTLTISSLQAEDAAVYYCQQYHSLPLSFGGGTKVEIK	1.90	3/3	3/9
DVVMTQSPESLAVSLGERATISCKSYQSVLRESRNKNSVAWYQQKAGQPPKLLIYWASTRESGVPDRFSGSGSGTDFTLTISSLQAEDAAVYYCQQYHRLPLSFGGGTKVEIK	nd	0/3	1/9
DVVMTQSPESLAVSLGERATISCKSSQSVLYEHWNKGSVAWYQQKAGQPPKLLIYWASTRESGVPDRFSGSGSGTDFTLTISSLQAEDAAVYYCQQYHRLPLSFGGGTKVEIK	nd	0/3	0/9
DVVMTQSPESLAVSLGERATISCKSSQSVLAESRNKNSVHWYQQKAGQPPKLLIYWASTRESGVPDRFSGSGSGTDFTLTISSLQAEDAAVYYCGQYHRLPLSFGGGTKVEIK	3.18	1/3	0/9
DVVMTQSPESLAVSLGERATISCKSSQKVLYESRNKNSHAWYQQKAGQPPKLLIYWAKTRESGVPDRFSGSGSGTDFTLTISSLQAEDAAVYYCQQYHRLPLSFGGGTKVEIK	nd	0/3	2/9

Again, the first 4 entries without any signal:

VL	log10 Kd (nM), mean	replicates with signal	signal with controls
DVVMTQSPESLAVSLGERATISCKSSASVLYESRNKNRVAWYQQKAGQPPKLLIYWASTRESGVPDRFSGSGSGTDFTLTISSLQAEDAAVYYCQHYHRLPLSFGGGTKVEIK	nd	0/3	0/9
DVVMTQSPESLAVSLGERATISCKSSQSVLYESRNKNSLAWYQQKAGQPPKLLIYWASTRESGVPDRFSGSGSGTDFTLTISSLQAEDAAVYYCQQYHHLMLSFGGGTKVEIK	nd	0/3	0/9
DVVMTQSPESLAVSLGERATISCKSSQSVLYESRNKNLVAWYQQKAGQPPKLLIYWASTRESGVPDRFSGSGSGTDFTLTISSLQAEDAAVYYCQQYLRLPLRFGGGTKVEIK	nd	0/3	3/9
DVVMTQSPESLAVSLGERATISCESSQSVLYESRNKNSVAWYQQKAGQPPKLLIYWASTRESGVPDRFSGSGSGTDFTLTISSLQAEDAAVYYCQQYHPLPLSFGGGTKVEIK	nd	0/3	3/9

Background: pairings of library AAYL50 with three empty control strains gave a value in 18% of cases (median 4.19, 5th percentile 2.99). Values in that range, when seen in few replicates, are hard to tell from nonspecific mating. Also given: how often the same scFv was detected with the empty control strains. For reference, the parent read 0.65 as the reference entry and 1.68 as a member of this library.

Source: Engelhart et al. 2022 (doi:10.1038/s41597-022-01779-4), MIT Lincoln Laboratory and A-Alpha Bio; data file from the FLAb repository.